Reference: patent publication US20170247475A1

Biological target: cyno serum albumin (cyno)
Assay: SPR, albumin on chip, 1:1 interaction model

Substance: ALB11 (VHH)
- koff: 0.0017 s⁻¹
